Test results from US11866720B2, “Transgenic or non-transgenic plants with mutated protoporphyrinogen oxidase having increased tolerance to herbicides” (priority 2013, dated 2024).

System: transgenic Arabidopsis thaliana plants expressing wildtype or mutated PPO
Assay: Greenhouse tolerance test of transgenic T1 Arabidopsis plants (phytotox / injury rating 0-100)
Type: in vivo
Conditions: repetitions 1, 2

SMILES	phytotox value, scale 0-100 (AMATU_PPO2 F420V, 200 g ai/ha, listed as Kixor)	phytotox value, scale 0-100 (AMATU_PPO2 L397D, 75 g ai/ha, listed as BAS 850H)	phytotox value, scale 0-100 (AMATU_PPO2 L397D, 300 g ai/ha, listed as BAS 850H)
CC(C)N(C)S(=O)(=O)NC(=O)c1cc(-n2c(=O)cc(C(F)(F)F)n(C)c2=O)c(F)cc1Cl [Saflufenacil, saflufenacil]	90 and 80	–	–
C#CCN1C(=O)C(F)(F)Oc2cc(F)c(-n3c(=O)n(C)c(=S)n(C)c3=O)cc21	–	70 and 80 and 60	90 and 100 and 70

Where “and” joins values, the source holds several entries; their conditions need not be identical. Equal entries are not always repeated.
